Patent US20170343554A1, “METHODS OF MEASURING ERBB SIGNALING PATHWAY ACTIVITY TO DIAGNOSE AND TREAT CANCER PATIENTS” (Celcuity LLC, priority 2014, published 2017)

Columns and labels:
[1] = test system: cells from two colon cancer patients (Patients C1 and C2); assay: CELx Combination test, impedance biosensor CReMS (Example 3); type: cell-based, human; conditions: Patient C1 cells
Experimental: The physiologic change of the C1 and C2 cells during the test was measured with an impedance biosensor CReMS and the output from the CReMS is recorded in FIGS. 3A and 3B. The comparison of the CELx test result and the third party clinical reference is recorded in FIG. 3C. […] The test also illustrates how the CELx test operates with colon cancer cells, in addition to breast cancer cells.
The CReMS, microplate, reagents, and buffers used in Examples 1 and 2 are the same as those employed in Example 3, except for the therapeutic agent used. In Example 3, two therapeutic agents, cetuximab and irinotecan, were tested. Irinotecan was purchased from Selleck Chemicals (TX, USA) and cetuximab was obtained from a clinical dispensary.
Colon cancer cells from Patients C1 and C2 were utilized and handled in the same manner as described in Example 1.
Between 6,000-12,000 cells in each well were seeded into the impedance microplate containing 120 uL settling media with serum. The solution was replaced with media containing no serum to synchronize the cells with respect to physiologic state. Twenty microliters each of irinotecan and cetuximab was added to one set each of the C1 and C2 cells; another control set of C1 and C2 cells received no drugs. […]

[2] = test system: cells from two HER2 overexpressing breast cancer patients (Patient B1 and B4); assay: CELx Pathway Shutdown test, impedance biosensor CReMS, EGF perturbation (Example 1); type: cell-based, human
Experimental: The physiologic change of the B1 and B4 cells during the test was measured with an impedance biosensor CReMS and the output from the CReMS is recorded in FIGS. 1A and 1B. The comparison of the CELx test results and the third party clinical reference is recorded in FIG. 1C. This example illustrates how the CELx test is able to predict the responsiveness that a patient will have to different targeted pathway drugs by using a CReMS to measure the physiological change in a patient's cells continuously over a period of several hours. This example also illustrates how the presence of a genetic biomarker, in this case an overexpressing HER2 receptor, is not a sufficient condition to predict efficacy of the drug.
A 4″×6″, 96-well impedance microplate was placed into a Roche Applied Science (Indianapolis, Ind.) xCELLigence SP impedance biosensor designed to maintain constant voltage while measuring simultaneously the impedance of every well. The change in impedance for a particular well is proportional to the number of cells and type of attachment the cells have with the impedance microplate. Changes in impedance indicate a response to perturbation of these small cell populations.
Cells from Patient B1 and B4 were utilized. The cells were received at −80° C., thawed and cultured according to standard human epithelial cell handling procedure, typically in T75 culture flasks containing buffered media with serum at 37° C., 5% CO2. Prior to addition to the impedance microplate, the cells were removed from their growth container with versene, counted, and re-suspended in media without serum or other growth factors.
Standard media, serum, antibiotics (e.g. penicillin, streptomycin), and other buffers were purchased and used as delivered from ATCC (Manassas, Va., USA) or Life Technologies (Grand Island, N.Y.). […] The therapeutic agent Lapatinib, a small molecule drug, was purchased from Selleck Chemicals (TX, USA); trastuzumab, an antibody drug, was obtained from a clinical dispensary. […]

[3] = test system: cancer patients (Patients B1, B2, B4, C1, C2); conditions: cited from earlier work

Substance	physiologic change caused by the individual drug of the combination [1]	CELx Pathway Shutdown test prediction of patient response ([2]; Patient B1)	change of cell index after the drug was added to the perturbed cells ([2]; Patient B1 cells, EGF perturbation, versus perturbation with no drug)	CELx Pathway Shutdown test prediction of patient response ([2]; Patient B4)	responsiveness recorded by the third party clinical reference standard ([3]; Patient B1 (breast cancer))	responsiveness recorded by the third party clinical reference standard ([3]; Patient B4 (breast cancer))
Cetuximab	did not cause a physiologic change	–	–	–	–	–
Trastuzumab	–	will not respond	less than 5%	would respond	unresponsive	responsive

Where two headings read alike, the source gives them in different places.
